Compound activity deposited in PubChem BioAssay by National Center for Advancing Translational Sciences (NCATS).
GALK inhibitor – blocks human galactokinase activity | Potency, µM (highest dose often 57.5 µM), without a hit: at the top dose activity change, negative = inhibition, hits mostly inhibitors | 0.007% of 270,000 active | Purified GALK, Kinase-Glo residual ATP luminescence | P51570; further: potency means the concentration at half of the fitted maximal effect; on the % scale 0 is the no-effect control and ±100 the full control effect
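Compounds were pin-transferred into ATP buffer (35 uM final), then GALK plus galactose (5 nM, 100 uM final) was added. After 1 h at room temperature, Kinase-Glo Plus was added and luminescence read after 10 min.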
RXFP1 antagonist – antagonists of human relaxin receptor RXFP1. activity change, negative = inhibition, % at 57.5 µM. AID 1259400. HEK293-RXFP1, relaxin-stimulated cAMP HTRF, 30 min; active compounds read low. 0.59% of 350,000 active;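 active means activity change of -60% or lower, but not beyond a set lower limit; inconclusive means change between -60% and -40%, or beyond the set limit; inactive means change above -40%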; further: on the % scale 0 is the no-effect control and ±100 the full control effect
KinaseGlo FLuc – blocks Kinase-Glo luciferase, a counter-screen artifact; Q27757; Kinase-Glo luciferase, ATP luminescence, 8 min; Potency, µM (doses to about 38.3 µM), inactives show top-dose activity change, negative = inhibition, most hits filed as inhibitors; 0.28% of 200,000 active; further: potency means the concentration at half of the fitted maximal effect; on the % scale 0 is the no-effect control and ±100 the full control effect; nearly all actives have a fitted effect of over 60% in size
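Kinase-Glo luciferase light output from ATP and luciferin was measured with 10 uM ATP, within the enzyme's linear range. Buffer: 50 mM imidazole pH 7.2, 50 mM KCl, 7 mM MgCl2, 0.01% Tween 20, 0.05% BSA; luminescence read after 8 min at ambient temperature.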
PKM2 act – activators of human pyruvate kinase M2 | purified PKM2, Kinase-Glo ATP luminescence, activation; response scale: 0% is enzyme alone, no compound | Potency, µM (series often up to 57.5 µM), inactives show at the highest dose activation, most hits filed as activators | P14618 | 0.34% of 260,000 active; further: potency means the concentration at half of the fitted maximal effect; on the % scale 0 is the no-effect control and ±100 the full control effect; nearly all actives have a fitted effect of over 55% in size
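Purified hPK-M2 (>95%) run at intermediate activity with 0.1 mM ADP and 0.5 mM PEP in 50 mM imidazole pH 7.2, KCl, MgCl2; 1 h room temperature. ATP formed read by Kinase-Glo luminescence; normalized to uninhibited and no-enzyme controls.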
miR-21 reporter – miR-21 reporter, rising signal | HeLa miR-21 FLuc reporter, luciferase, 48 h | Potency, µM (top dose mostly 38.3 µM), inactives show at the highest dose reporter change, positive = more light | 340,000 tested, under 10 active | AID 2288; active = well fitted rising curve with a large enough effect; inconclusive = small, poorly fitted or top-dose-only effect; inactive = no such curve, though single readings can be large or run the other way;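 note: % of control where 0% means no effect; miR-21 action dims this reporter so a rising signal means less miR-21 action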
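HeLa miR-21-FLuc reporter line, endogenous miR-21; 2000 cells/well in DMEM/10% FBS; compound titration up to ~40uM final, 48 h, 37 degree Celsius; luciferase detection reagent, 15 min lysis, CCD luminescence.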
RXFP1 ag – activates the human relaxin receptor RXFP1 | HEK293T-RXFP1 cAMP TR-FRET, 30 min; response scale: percent of porcine relaxin response, buffer zero | 0.3% of 370,000 active | Potency, µM (highest dose often 57.5 µM), inactives show at the top dose activation, most hits filed as activators | AID 2676 | Q9HBX9; further: potency means the concentration at half of the fitted maximal effect; on the % scale 0 is the no-effect control and ±100 the full control effect; nearly all actives have a fitted effect of over 60% in size
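cAMP rise read by TR-FRET after 30 min, 37C compound exposure (up to 58 uM) in RXFP1-transfected HEK293 cells with Ro 20174 present. EC50 from Hill-equation fits, with 29 nM porcine relaxin as 100% and buffer as basal.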
The depositor's hits bear a star; ? = inconclusive; . = no result given; ! = not active in a repeat; [ ] = another dose, or the depositor's remark. A selection: hits, their analogues and other compounds. The true share with any hit is near 0.92%. Unless noted, the call rests on the fitted dose curve; in most records, active means well fitted curve in the direction sought with a large enough effect; inconclusive means small, poorly fitted or top-dose-only effect, or another doubt; inactive means no such curve, though single readings can be large; an effect the other way counts as inactive or inconclusive.

SMILES	GALK inhibitor	RXFP1 antagonist	KinaseGlo FLuc	PKM2 act	miR-21 reporter	RXFP1 ag
NCCC[C@@H](CC(=O)N[C@@H]1CCNC[C@H]1C(=O)N[C@H](CC(=O)N[C@@H](CCC(=O)O)CC(=O)O)Cc1ccccc1)NC(=O)C[C@H](Cc1c[nH]c2ccccc12)NC(=O)[C@@H]1CCCC[C@H]1N	.	.	0%	.	.	.
CC(CNC(=O)CCCn1c(=O)c2cccn2c2ccccc21)c1ccccc1 (stereo not drawn)	.	-78*	.	.	-5%	-2%
CC(C)CCNC(=O)CCCn1c(=O)c2cccn2c2ccccc21	.	-10	.	.	20%	1%
CSc1ccc(CCNC(=O)CCCn2c(=O)c3cccn3c3ccccc32)cc1	.	-75*	.	.	?	4%
CCn1cc([N+](=O)[O-])c(C(=O)N2N=C(c3ccc(Cl)c(Cl)c3)CC2c2ccccc2O)n1 (stereo not drawn)	0%	-24	2%	22µM*	?	2%
CCn1cc([N+](=O)[O-])c(C(=O)N2N=C(c3ccc4ccccc4c3)CC2c2cc(Br)ccc2O)n1 (stereo not drawn)	-3%	-39	-1%	1%	?	1%
CCn1cc([N+](=O)[O-])c(C(=O)N2N=C(c3ccc(O)c(OC)c3)CC2c2ccccc2O)n1 (stereo not drawn)	.	-7	1%	18µM*	-18%	0%
Cc1ccc(CCn2c3c(c4cc(Cl)ccc42)CN(C)CC3)cn1	.	-16	.	.	.	.
COC(=O)C(C(=O)OC)[C@@H]1O[C@@]23COC=C[C@]2(C)[C@H]3c2ccccc21	.	.	0%	.	.	.
CC1CCCC(NC(=O)CSc2ccc(F)cc2)C1C (stereo not drawn)	-3%	-1	-2%	.	-6%	-1%
CC1CCCC(NCC(O)COC(c2ccc(F)cc2)c2ccc(F)cc2)C1C (stereo not drawn)	-2%	-69*	5%	1%	?	-1%
Cn1c2ccccc2c2cc(/C=N/NC(=O)c3cc(O)ccc3O)ccc21	-1%	-112*	.	8%	0%	3%
CCOC(=O)c1c(-c2ccc(-c3ccccc3)cc2)csc1NC(=O)CNCCN(C)C	-2%	-103*	.	.	?	0%
CCOC(=O)c1c(-c2ccccc2)csc1NC(=O)CCN1C(=O)c2ccccc2C1=O	0%	-9	4%	7%	-4%	-1%
O[C@@H](c1cc([C@@]23C[C@H]4CC[C@@H]2C[C@H](C4)C3)nc2c(Cl)cc(Cl)cc12)C1CCCCN1 (stereo partly drawn)	.	.	-9%[7.66 µM]	.	.	.
CCCCn1c(=O)[nH]c(=O)c2c1nc(Cn1ncc(Cl)c(Cl)c1=O)n2CCC	-3%	10	.	2%	?	25µM*
Cc1nc2ccc(N=NN(C)C)cc2[nH]1	3%	5	.	10µM*	3%	-2%
COc1ccc(C(O)P(=O)(OCCC(C)C)c2ccc(N(C)C)cc2)cc1 (stereo not drawn)	6%	2	.	.	6%	0%
CCC/C=C(\CCC)C(NS(=O)(=O)CC12CCC(CC1=O)C2(C)C)c1ccc(C(=O)OC)cc1 (stereo not drawn)	.	.	-4%	-11%	.	.
COc1ccc2c(=O)c(-c3ccccc3)coc2c1	15%	7	2.8µM*!	-16%	-30%	-1%
C[C@H]1Cc2c(COc3ccccc3)nc3c(c2CO1)CN(S(=O)(=O)c1ccc(Cl)c2nonc12)CC3	.	.	-7%[7.66 µM]	-9%[11.5 µM]	.	.
Cc1cc(N2CCN(S(=O)(=O)c3ccc4ccccc4c3)CC2)n2ncnc2n1	3%	-16	0%	18µM*	-20%	4%
CCOC(=O)C1=C(C)NC(C)=C(C(=O)OC)[C@@H]1c1cccc(Cl)c1Cl	.	.	-2%[17.1 µM]	.	.	.
Cc1ccc(C(=O)/C=C/Nc2ccccc2C(N)=O)cc1	1%	-9	11µM*	-19%	-2%	-3%
Cc1ccc(C(=O)/C=C/C(=O)c2ccc(C)cc2)cc1	-1%	-67*	-1%	?	0%	-2%
CC(Oc1ccccc1)C(=O)NC1CCCCCCC1 (stereo not drawn)	-2%	-15	.	9%	-9%	-2%
CC(C)/C(C=O)=C(/NC1CCCCC1)c1ccccc1	.	-63*	.	.	.	.
Nc1nnnn1-c1ccccc1	.	-74*	.	.	.	.
O=C(CSc1nnnn1-c1ccccc1)CSc1nnnn1-c1ccccc1	0%	-1	13%	8%	1%	2%
COc1ccccc1CCC(=O)NC1CCCN(c2ccc(C(F)(F)F)cn2)C1 (stereo not drawn)	5%	-99*	.	.	0%	0%

2 entries drawn at random from those above:
SMILES	GALK inhibitor	RXFP1 antagonist	KinaseGlo FLuc	PKM2 act	miR-21 reporter	RXFP1 ag
CC(CNC(=O)CCCn1c(=O)c2cccn2c2ccccc21)c1ccccc1 (stereo not drawn)	.	-78*	.	.	-5%	-2%
CCOC(=O)c1c(-c2ccccc2)csc1NC(=O)CCN1C(=O)c2ccccc2C1=O	0%	-9	4%	7%	-4%	-1%

(cont.)
SMILES	GALK inhibitor	RXFP1 antagonist	KinaseGlo FLuc	PKM2 act	miR-21 reporter	RXFP1 ag
CC(=O)Nc1ccc(C=NNC(=O)CCCC(=O)NN=Cc2ccc(NC(C)=O)cc2)cc1	.	7	.	.	.	.
O=C(CSc1nc2[nH]ncc2c(=O)n1-c1ccccc1Br)NCc1ccccc1Cl	0%	9	0%	7%	-8%	22%
N#CCSc1nc2[nH]ncc2c(=O)n1-c1ccccc1Br	3%	-3	10µM*	-32%	?	6%
O=C(NCCc1csc(-c2ccc(F)cc2)n1)c1cccs1	.	-61*	.	.	12%	1%
O=C(CS(=O)(=O)c1ccccc1)c1ccc2c(c1)OCCO2	2%	.	10µM*	-16%	-25%	-1%
N#Cc1ccc(CS(=O)(=O)c2nnnn2C2CCCCC2)cc1	.	.	-3%	.	.	.
CC(C)c1nnc(NC(=O)CCC(=O)N2CCN(c3ccc(Cl)cc3)CC2)s1	4%	-67*	.	.	8%	-1%
Fc1ccc(C(c2ccc(F)cc2)N2CCN(C/C=C/c3ccccc3)CC2)cc1	-2%	-64*	0%	-7%	?	3%
O=C(NCCN1C(=O)S/C(=C\c2cccs2)C1=O)c1ccc(=O)[nH]c1	0%	.	2%	4.5µM*	-38%	1%
CC(=O)NCCN1C(=O)S/C(=C\c2cccs2)C1=O	12%	-18	0%	-6%	-24%	-6%

Compound profiles, from the list above.
O=C(CS(=O)(=O)c1ccccc1)c1ccc2c(c1)OCCO2 as listed: GALK inhibitor = 2%; RXFP1 antagonist = .; KinaseGlo FLuc = 10µM*; PKM2 act = -16%; miR-21 reporter = -25%; RXFP1 ag = -1%
N#CCSc1nc2[nH]ncc2c(=O)n1-c1ccccc1Br as listed: GALK inhibitor = 3%; RXFP1 antagonist = -3; KinaseGlo FLuc = 10µM*; PKM2 act = -32%; miR-21 reporter = ?; RXFP1 ag = 6%
O=C(NCCN1C(=O)S/C(=C\c2cccs2)C1=O)c1ccc(=O)[nH]c1 as listed: GALK inhibitor = 0%; RXFP1 antagonist = .; KinaseGlo FLuc = 2%; PKM2 act = 4.5µM*; miR-21 reporter = -38%; RXFP1 ag = 1%

Next part:
SMILES	GALK inhibitor	RXFP1 antagonist	KinaseGlo FLuc	PKM2 act	miR-21 reporter	RXFP1 ag
O=C(Oc1ccc2c(c1)OCC2=O)c1ccc(Cl)cc1	-2%	-60*	.	2%	0%	0%
COc1cc(C(=O)Oc2ccc3c(c2)OCC3=O)cc(OC)c1OC	0%	-7	-6%	-3%	-4%	-1%
CCCCS(=O)(=O)N1CCc2nc(-c3ccc(OC)cc3C)c3c(c2C1)CO[C@@H](c1ccccc1)C3	.	.	-3%[7.66 µM]	-5%[11.5 µM]	.	.
Cc1cccc(NS(=O)(=O)c2ccc(Cl)c(C(=O)O)c2)c1	.	.	1%	.	.	.
